{"sequences": {"note": "Amino acid sequences for entries named in this document (tags omitted). Chains listed by the source or under a name are the forms on record and can include a tag or linker.", "UniProt P35968, with tags, fused parts or gaps DEL940-989/E990V limits assumed": "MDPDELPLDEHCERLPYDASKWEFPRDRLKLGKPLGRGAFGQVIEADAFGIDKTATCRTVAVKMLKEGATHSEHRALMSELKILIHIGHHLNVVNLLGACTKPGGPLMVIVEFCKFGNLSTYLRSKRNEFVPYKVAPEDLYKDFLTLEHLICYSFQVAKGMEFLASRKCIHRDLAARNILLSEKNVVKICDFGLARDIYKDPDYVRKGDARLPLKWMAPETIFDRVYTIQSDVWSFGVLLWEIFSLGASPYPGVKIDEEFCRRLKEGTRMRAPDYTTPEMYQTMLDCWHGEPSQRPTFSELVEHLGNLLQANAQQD"}, "source": "patent US6635641B2", "about": "(Agouron Pharmaceuticals, Inc., priority 2000, dated 2003)", "target": "T1, unphosphorylated VEGF-R2Δ50 (FLVK) (Homo sapiens, UniProt P35968, DEL940-989/E990V)", "T1 construct": "VEGF-R2Δ50 contains residues 806-939 and 990-1171; made in house; host or cells: baculovirus/insect cells", "assay": "VEGF-R2 coupled spectrophotometric assay, unphosphorylated construct (FLVK);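 also: Baculovirus-expressed cytosolic kinase domain, ADP formation linked via pyruvate kinase and lactate dehydrogenase to NADH oxidation, read as falling absorbance at 340 nm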", "format": "biochemical", "details": "read-out: FLVK percent inhibition", "from_the_text": "A construct (VEGF-R2Δ50) of the cytosolic domain of human vascular endothelial growth factor receptor 2 (VEGF-R2) lacking the 50 central residues of the 68 residues of the kinase insert domain was expressed in a baculovirus/insect cell system. Of the 1356 residues of full-length VEGF-R2, VEGF-R2Δ50 contains residues 806-939 and 990-1171, and also one point mutation (E990V) within the kinase insert domain relative to wild-type VEGF-R2. See commonly assigned, co-pending U.S. patent application Ser. No. 09/390,326, filed Sep. 7, 1999, incorporated by reference herein, for discussion of VEGF constructs and expression systems. […]\nThe production of ADP from ATP that accompanies phosphoryl transfer was coupled to oxidation of NADH using phosphoenolpyruvate (PEP) and a system having pyruvate kinase (PK) and lactic dehydrogenase (LDH). The oxidation of NADH was monitored by following the decrease of absorbance at 340 nm (e340=6.22 cm^−1 mM^−1) using a Beckman DU 650 spectrophotometer. […] Ki values were determined by measuring enzyme activity in the presence of varying concentrations of test compounds. The data were analyzed using Enzyme Kinetic and Kaleidagraph software."}
{"smiles": "Cc1cc(NC(=O)c2cccc(OCc3ccc(N)nc3)c2)ccc1C(C)C", "note": "[Example L-1, 3-(6-Aminopyridin-3-yl)methoxy-N-(4-Isopropyl-3-methyl-phenyl)-benzamide]", "values": [{"measurement": "inhibition at 0.05 µM", "value": 3, "unit": "%"}]}
